Experimental data taken from US6664231B1, “Anti-fungal peptides” (priority 1993, dated 2003).

Columns and labels:
[1] = test system: C. albicans (CA-1, Strain SLU-1); experiment: Radial diffusion assay; assay type: cell-based, Candida albicans; details: pmoles of peptide added to well to achieve a 30 mm^2 zone, PROBIT analysis; crude or purified (P′) peptide
In short: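 Yeast at 1×10^6 CFU/mL in agarose underlayer (3% Sabouraud, 10 mM sodium phosphate pH 7.4); 2-fold peptide dilutions in D-PBS from ~1 mg/mL loaded into wells, 3 h at 37° C, then nutrient overlayer overnight. Value: pmol/well giving 30 mm^2 net clear zone, by PROBIT regression.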

[2] = in vitro; assay type: in vitro ADME, rat or human serum; details: serum, half-life of peptide in serum as detected by HPLC analysis; read-out: HPLC Peptide in Serum t ½ (converted)
Description: For these serum stability experiments, peptides were prepared by solid phase peptide sythesis and purified to 94% or greater purity as described in Example 1. Blood was collected from metaphane anesthesized rats by aortic bleed into Vacutainer™ tubes and allowed to clot at room temperature for approximately 30 minutes, then centrifuged at 3000 rpm (about 1000×g) for 10 minutes at room temperature and the serum aspirated. In addition, frozen human serum (North American Biologics, Inc., Miami, Fla., cat. no. 2140, lot no. 94115) was thawed at room temperature and filtered through a 0.45 μm membrane before use.
A 1 mg/mL solution of an exemplary XMP peptide to be tested was added to an equal volume of either rat or human serum described above and maintained at 37° C. At 0, 1, 2, and 4 hours, 100 μL were removed and processed by solid phase extraction for HPLC analysis as follows. Serum samples were prepared for HPLC using C-18 Sep-Pak cartridges (1 mL cartridge with 100 mg of sorbent, Waters Corp., Milford, Mass.). One hundred μL of serum sample were added to an equal volume of 1% TFA and mixed for 30 seconds on a Vortex mixer. The sample was then applied to a C-18 Sep-Pak cartridge that had been conditioned by washing with 1 mL of methanol followed by 1 mL Milli-Q water. Weakly reed components were eluted by washing with 1 mL of 0. 1% TFA. The bound peptide was eluted with two volumes of 250 μL 80% acetonitrile/0.065% TFA.
The material eluted from the Sep-Pak cartridge was analyzed on a Michrom Ultaafast Microprotein Analyzer equipped with a 150 mm×1 mm, 5μ particle, 300 Å pore C-8 Zorbax column. The column oven was set to 40° C., the flow rate was 100 μL/minute, and injection volumes were typically 5-10 μL. HPLC was performed using 5% acetonitrile/0.1% TFA in water as mobile phase A, and 80% acetonitrile/0.065% TFA as mobile phase B. The eluate was monitored spectiophotometrically at 214 nm. Peptide standards were dissolved in mobile phase A at 0. 1 mg/mL. The gradient was 25-35% B/10 minutes followed by a 5 minute wash step of 100% B and reequilibration at 25% B for 10 minutes.

[3] = test system: Candida glabrata; assay type: cell-based
Description: (§1) In additional experiments, a fluorescence-activated cell sorter (FACS) based assay was developed to test the fungicidal activity of the peptides. […] Difco) agar. Several colonies were picked from the agar plate and inoculated into 5 mL of Sabouraud's Dextrose media in a sterile 10 mL polypropylene tube. The fungal cultures were incubated for about 18 hours at 30° C. […] The culture were centrifuged at 3000 rpm for 5 minutes (Sorvall RT 6000B). After centrifugation, the supernatant was decanted leaving the fungal pellets in the centrifuge tubes. The pellets were resuspended in 15 mL of SDB. Both suspensions were combined into one tube and mixed to generate a stock culture. […] After determining the concentration of the stock, appropriate dilutions were made with Sabouraud's Dextrose media to obtain 100 mL of 1×10^6 cell/mL. […] After the 1 hour incubation, all the tubes were centrifuged at 3000 rpm for 5 minutes. […] Louis, Mo.) in Dulbecco's PBS (DPBS, GIBCO, Grand Island, N.Y.) except the autofluorescence control, which was resuspended in DPBS alone. The tubes were mixed and incubated in the dark at room temperature for at least 20 minutes. […] The settings were adjusted appropriately to the following approximate parameters: Cells were analyzed (10,000 cells/tube) and their respective fluorescence determined. […] The population of dead (i.e., propidium iodide stained) fungal cells was determined by a fluorescence threshold between the negative control and positive control.

[4] = test system: Candida lusitaniae; assay type: cell-based
Description: as §1

[5] = test system: Crytococcus Neoformans 13690; assay type: cell-based, Cryptococcus neoformans
Description: as §1

[6] = Serum stability, anti-fungal activity after serum incubation by radial diffusion bioassay; assay type: in vitro ADME, rat or human serum; details: Activity in Serum t ½ (hr.)
In short: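 Peptide at 1 mg/mL mixed with an equal volume of rat or human serum and held at 37° C. Samples taken at 0, 1, 2 and 4 h, extracted on C-18 solid phase, then analysed by HPLC, N-terminal sequencing and ESI/MS. Recovered peptides tested against C. albicans SLU-1 by radial diffusion.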

CC[C@H](C)[C@H](NC(=O)[C@H](CC(C)C)NC(=O)[C@H](Cc1c[nH]c2ccccc12)NC(=O)CNC(=O)[C@@H](NC(=O)[C@@H](N)CCCCN)C(C)C)C(=O)N[C@@H](CCC(N)=O)C(=O)N[C@@H](CC(C)C)C(=O)N[C@@H](Cc1ccccc1)C(=O)N[C@@H](Cc1c[nH]cn1)C(=O)N[C@@H](CCCCN)C(=O)N[C@@H](CCCCN)C(N)=O [XMP.391]
C. albicans pmol/30 mm^2 zone [1]: 68 pmol/30 mm^2 zone | half-life at 0.5 mg/mL [2]: 1 h | Candida glabrata IC50 [3]: 2.85 µg/mL | Candida lusitaniae IC50 [4]: 1.69 µg/mL | Activity of Peptides on Crytococcus Neoformans 13690, IC50 [5]: 0.34 µg/mL | half-life at 0.5 mg/mL [6]: 4.7 h
